{"source": "paper PMC12865133", "about": "“Macrocyclic Molecular Glues for the 14‐3‐3/ChREBP Interaction: Affinity and Cooperativity in an Inverse Relationship” (Angewandte Chemie (International Ed. in English), 2025)", "target": "T1, 14-3-3γ (Homo sapiens, UniProt P61981)", "T1 sequence (P61981 1-247)": "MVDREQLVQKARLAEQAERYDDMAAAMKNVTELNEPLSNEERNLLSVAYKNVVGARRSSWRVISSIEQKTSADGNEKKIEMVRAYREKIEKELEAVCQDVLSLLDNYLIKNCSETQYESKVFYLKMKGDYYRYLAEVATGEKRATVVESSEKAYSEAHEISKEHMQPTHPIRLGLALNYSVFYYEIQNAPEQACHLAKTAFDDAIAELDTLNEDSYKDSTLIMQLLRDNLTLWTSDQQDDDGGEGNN", "assay": "Isothermal titration calorimetry, peptide titrated to 14-3-3γ", "assay_type": "binding", "conditions": "ITC, 200 μM peptide titrated to 20 μM 14-3-3γ, mean ± SD, n=3", "description": "Final dialysis fluid from protein expression was frozen as 2 mL aliquots to serve as ITC buffer (25 mM HEPES pH 8.0, 100 mM NaCl, 10 mM MgCl2, 500 µM TCEP). 14-3-3γ and peptide were dissolved and diluted in this buffer to 20 μM and 200 μM, respectively. Samples were degassed for 10 min prior to measurement at 450 mmHg. The reference cell was filled with 300 µL degassed MilliQ and the sample cell was filled with 300 µL of peptide or protein mixture. Syringe was loaded with at least 200 µL protein or peptide sample. Measurements were performed on an Affinity ITC LV (TA instruments), with injection size set to 2 µL, stirring speed of 125 rpm and temperature at 25 ̊C. The baseline was automatically adjusted with NITPIC, analysis of data was done in SEDPHAT, and images were produced with GUSSI software. Data and errors represent mean ± SD, n=3 replicates."}
{"smiles": "NCCCC[C@H](NC(=O)[C@H](Cc1ccc([N+](=O)[O-])cc1)NC(=O)CCNC(=O)C[C@H](CO)NC(=O)[C@H](Cc1ccc([N+](=O)[O-])cc1)NC(=O)[C@@H](N)COP(=O)(O)O)C(N)=O", "note": "[pepD, reference compound]", "values": [{"measurement": "ΔS", "setting": "25 mM HEPES pH 8.0, 100 mM NaCl, 10 mM MgCl2, 500 µM TCEP, 25 °C", "result": "-1.1 ± 1 cal/(mol·K)"}, {"measurement": "ΔG", "setting": "pH 8.0, 25 °C", "result": "-7.58 ± 0.12", "unit": "kcal/mol"}, {"measurement": "ΔH", "setting": "pH 8.0, 25 °C", "result": "-7.9 ± 0.39", "unit": "kcal/mol"}]}
